How the values were obtained:
[1] = system: genome of SKMEL5 melanoma cells; experiment: In vitro Chem-Seq of bio-JQ1 compared with Brd4 ChIP-Seq; details: DMSO as background
Protocol: Human SK-MEL-5 cells were grown to 80% confluency with a final count of 1-2×10^8 cells for each location analysis reaction. Cells were chemically crosslinked by the addition of one-tenth volume of fresh 11% formaldehyde solution for 15 minutes at room temperature. Cells were harvested using a silicon scraper, centrifuged and the derived pellets washed three times with 1×PBS. Cell pellets were flash frozen in liquid nitrogen and stored at −80° C. prior to use.
Cells were resuspended, lysed in lysis buffers and sonicated to solubilize and shear crosslinked DNA. Sonication conditions vary depending on cells, culture conditions, crosslinking, equipment, and drug or drug candidate. A Misonix Sonicator 3000 was used and sonication was performed at power 8 for 10×30 second pulses (60 second pause between pulses). Samples were kept on ice at all times.
The resulting whole cell extract was incubated overnight at 4° C. (affinity purification) with 100 μl of Streptavidin Dynal (MyOne Streptavidin T1) magnetic beads that had been pre-incubated with JQ1 as follows: 5 ul of 10 mM JQ1/DMSO solution were mixed with 100 ul of Strepavidin Dynal bead suspension and incubated overnight (o.n.). Drug-bound beads were washed four times with BSA blocking solution to remove unbound drug.
The affinity purification was allowed to proceed overnight. […]

[2] = molecular target: BRD4's first bromodomain, BRD4(1) (Homo sapiens, UniProt O60885)
Bromodomain 4 (BRD4) = Bromodomain 4 (BRD4) (Homo sapiens, UniProt O60885); experiment: Differential scanning fluorimetry (DSF), thermal stabilisation of BRD4; details: versus DMSO and JQ1R controls

Kd [2]: 109 nM | Stabilisation of BRD4 against thermal unfolding (DSF) (Bromodomain 4 (BRD4)): bind to BRD4 to make it more stable
SMILES: Cc1sc2c(c1C)C(c1ccc(Cl)cc1)=N[C@@H](CC(=O)NCCCOCCOCCOCCCNC(=O)CCCC[C@@H]1SC[C@@H]3NC(=O)N[C@@H]31)c1nnc(C)n1-2
Overlap of bio-JQ1 Chem-Seq occupancy with genome-wide Brd4 ChIP-Seq occupancy [1]: high degree of overlap

From patent US20150167062A1, “Genome-wide Method of Assessing Interactions Between Chemical Entities And Their Target Molecules” (Whitehead Institute for Biomedical Research, priority 2012, published 2015)
